Results reported in patent US9120781B2, “Selective glycosidase inhibitors and uses thereof” (Simon Fraser University, priority 2010, dated 2015).

Sequences of proteins named here, by UniProt entry; tags and fusion partners are left off. A change or cut given only in a name is not applied to a line headed by its entry.
UniProt O60502: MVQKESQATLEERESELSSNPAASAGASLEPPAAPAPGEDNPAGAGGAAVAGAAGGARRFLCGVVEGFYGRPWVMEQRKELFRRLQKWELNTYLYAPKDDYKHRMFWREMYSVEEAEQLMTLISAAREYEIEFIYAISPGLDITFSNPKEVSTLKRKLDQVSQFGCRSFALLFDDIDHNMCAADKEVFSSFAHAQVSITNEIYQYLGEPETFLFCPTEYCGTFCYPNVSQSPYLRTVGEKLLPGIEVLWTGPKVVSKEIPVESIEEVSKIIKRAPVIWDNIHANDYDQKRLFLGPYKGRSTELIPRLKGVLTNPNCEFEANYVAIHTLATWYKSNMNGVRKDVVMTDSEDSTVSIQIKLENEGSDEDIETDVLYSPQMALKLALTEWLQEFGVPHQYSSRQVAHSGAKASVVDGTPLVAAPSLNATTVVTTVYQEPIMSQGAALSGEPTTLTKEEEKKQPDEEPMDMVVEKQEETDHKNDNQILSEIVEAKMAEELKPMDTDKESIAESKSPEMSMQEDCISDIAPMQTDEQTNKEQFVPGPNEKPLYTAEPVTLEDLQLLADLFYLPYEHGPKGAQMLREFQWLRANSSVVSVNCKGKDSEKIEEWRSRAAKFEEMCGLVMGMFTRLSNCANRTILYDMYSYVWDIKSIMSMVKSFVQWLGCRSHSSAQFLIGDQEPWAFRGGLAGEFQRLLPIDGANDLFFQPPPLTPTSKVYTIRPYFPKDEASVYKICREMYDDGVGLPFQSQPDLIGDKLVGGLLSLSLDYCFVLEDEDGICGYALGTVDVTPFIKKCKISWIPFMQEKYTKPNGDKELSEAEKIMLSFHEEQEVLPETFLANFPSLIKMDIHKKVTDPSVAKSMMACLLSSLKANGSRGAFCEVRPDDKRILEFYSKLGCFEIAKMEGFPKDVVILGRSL

Target: human O-GlcNAcase (Homo sapiens (Human), UniProt O60502)
Assay: Assay for determination of KI values for inhibition of O-GlcNAcase activity (fluorescence-based hOGA)
Format: biochemical
Conditions: purified human O-GlcNAcase, 4-Methylumbelliferyl N-acetyl-β-D-glucosaminide substrate, pH 7.0, Cheng-Prusoff
Method: Assay for Determination of KI Values for Inhibition of O-GlcNAcase Activity
Experimental Procedure for Kinetic Analyses:
Enzymatic reactions are carried out in a reaction containing 50 mM NaH2PO4, 100 mM NaCl and 0.1% BSA (pH 7.0) using 2 mM 4-Methylumbelliferyl N-acetyl-β-D-glucosaminide dihydrate (Sigma M2133) dissolved in ddH2O, as a substrate. The amount of purified human O-GlcNAcase enzyme used in the reaction is 0.7 nM. Test compound of varying concentrations is added to the enzyme prior to initiation of the reaction. The reaction is performed at room temperature in a 96-well plate and is initiated with the addition of substrate. The production of fluorescent product is measured every 60 sec for 45 min with a Tecan Infinite M200 plate-reader with excitation at 355 nm and emission detected at […], with 4-Methylumbelliferone (Sigma M1381) used to produce a standard curve. The slope of product production is determined for each concentration of compound tested and plotted, using standard curve fitting algorithms for sigmoidal dose response curves. The values for a four parameter logistic curve fit of the data are determined.
KI values are determined using the Cheng-Prusoff equation; the Km of O-GlcNacase for substrate is 0.2 mM.

Ki: 7.4 nM
SMILES: CC1=N[C@@H]2[C@@H](O)[C@H](O)[C@@H](CO)C[C@@H]2O1 (racemic) [Example 13, rac-(3aR,4R,5R,6R,7aS)-6-(hydroxymethyl)-2-methyl-3a,4,5,6,7,7a-hexahydrobenzo[d]oxazole-4,5-diol]
